Among the data in article PMC6271009, “Design and Synthesis of Thiazolo[5,4-f]quinazolines as DYRK1A Inhibitors, Part II” (Molecules, 2014) are IC50 values, retold here.

Experiment [1] has as its target DYRK1B (Homo sapiens, UniProt Q9Y463). The experiment in a line: DYRK1B kinase assay, Reaction Biology Corporation HotSpot technology (33P ATP).
Experiment [2] concerns the target T1, DYRK1A (Homo sapiens, UniProt Q13627).
T1 construct: Purified recombinant kinase was incubated with serial 3-fold dilutions of test compounds; purchased Reaction Biology Corporation
The experiment in a line: DYRK1A kinase assay, Reaction Biology Corporation HotSpot technology (33P ATP). To be noted: purified recombinant kinase, 10 µM ATP, 120 min, room temperature. The format is biochemical.

Structures are written as SMILES.

Compound `COC(=N)c1nc2ccc3ncnc(N(C)c4ccc(OC)c(OC)c4)c3c2s1` [Compound 11b, Methyl 9-[(3,4-dimethoxyphenyl)(methyl)amino]thiazolo[5,4-f]quinazoline-2-carbimidate] showed an IC50 in experiment [1] of 4460 nM.
For `COC(=N)c1nc2ccc3ncnc(N(C)c4ccc(OC)cc4)c3c2s1` [Compound 11a, Methyl 9-[(4-methoxyphenyl)(methyl)amino]thiazolo[5,4-f]quinazoline-2-carbimidate], the IC50 in experiment [1] was 84.9 nM.
Take `CCN1/C(=C/C(C)=O)Sc2ccc(OC)cc21` [TG003, reference compound]: the IC50 in experiment [2] was determined as 24 nM.
